From ChEMBL document CHEMBL5029173, “Differential BET Bromodomain Inhibition by Dihydropteridinone and Pyrimidodiazepinone Kinase Inhibitors” (J Med Chem, 2021)

Test system: HEK-293T
Assay: Inhibition of cell growth in HEK293T cells incubated for 72 hrs by CellTiter-blue reagent based assay
Format: functional
Settings: Homo sapiens

Work on `Cc1sc2c(c1C)C(c1ccc(Cl)cc1)=N[C@@H](CC(=O)OC(C)(C)C)c1nnc(C)n1-2` yielded an IC50 of 107 nM.
